Experimental data from patent US20060189528A1.

Chains of the proteins cited; added tags and fusions are not shown. Residues count along the entry.
UniProt P50591, 114-281 limits assumed: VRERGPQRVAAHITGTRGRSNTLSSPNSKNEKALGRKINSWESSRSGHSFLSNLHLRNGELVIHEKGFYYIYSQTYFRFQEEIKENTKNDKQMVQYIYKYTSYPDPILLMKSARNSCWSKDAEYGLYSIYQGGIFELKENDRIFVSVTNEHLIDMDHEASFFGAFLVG

Molecular target: TRAIL (human) (UniProt P50591)
Experiment: cell-based or functional assay

Question: Which proportion of HCT116 cells exhibiting TRAIL-induced apoptosis (TRAIL 0.53 nM) at an OPG dose of 5.6 nM does the source give for “recombinant human OPG.Fc (R&D Systems) (from UniProt O00300 22-401) (Fc fusion)” here?
Answer: Its proportion of HCT116 cells exhibiting TRAIL-induced apoptosis (TRAIL 0.53 nM) at an OPG dose of 5.6 nM is less than 10%.
